Reference: ChEMBL document CHEMBL1140138, “Novel opioid peptide derived antagonists containing (2S)-2-methyl-3-(2,6-dimethyl-4-carbamoylphenyl)propanoic acid [(2S)-Mdcp]” (J Med Chem, 2008)

Amino acid sequences for entries named in this document (tags omitted).
UniProt P32300, whole entry: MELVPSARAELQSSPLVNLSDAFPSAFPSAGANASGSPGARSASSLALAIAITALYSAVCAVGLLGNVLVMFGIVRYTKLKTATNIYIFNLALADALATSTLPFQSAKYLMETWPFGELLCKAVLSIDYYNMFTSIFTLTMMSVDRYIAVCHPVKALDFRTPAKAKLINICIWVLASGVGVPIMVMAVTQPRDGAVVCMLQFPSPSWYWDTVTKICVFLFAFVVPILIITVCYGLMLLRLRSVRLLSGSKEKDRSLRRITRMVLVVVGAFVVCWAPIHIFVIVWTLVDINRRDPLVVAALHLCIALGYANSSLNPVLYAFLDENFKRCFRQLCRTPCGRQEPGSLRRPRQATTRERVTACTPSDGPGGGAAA

Target: Delta-type opioid receptor (Mus musculus, UniProt P32300)
Experiment: Antagonist activity against delta opioid receptor in mouse vas deference assessed as effect on DPDPE-induced response
Type: functional
Method in brief: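 Isolated tissue bioassays: mu and kappa antagonism measured in guinea pig ileum, delta antagonism in mouse vas deferens. Antagonist potency expressed as Ke (nM).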

C[C@@H](O)[C@H](NC(=O)[C@H]1NC(=O)[C@H]([C@@H](C)O)NC(=O)[C@H](CCCN)NC(=O)[C@@H](Cc2c[nH]c3ccccc23)NC(=O)[C@H](Cc2ccc(O)cc2)NC(=O)[C@@H](NC(=O)[C@H](N)Cc2ccccc2)CSSC1(C)C)C(N)=O
IC50: 13.5 µM
